Measurements as given in paper PMC2956102 (International Journal of Molecular Sciences, 2010).

The chains behind the UniProt entries cited, without tags or fusion partners. Residues count along the entry.
UniProt P23739, 2-1013 partner limits assumed: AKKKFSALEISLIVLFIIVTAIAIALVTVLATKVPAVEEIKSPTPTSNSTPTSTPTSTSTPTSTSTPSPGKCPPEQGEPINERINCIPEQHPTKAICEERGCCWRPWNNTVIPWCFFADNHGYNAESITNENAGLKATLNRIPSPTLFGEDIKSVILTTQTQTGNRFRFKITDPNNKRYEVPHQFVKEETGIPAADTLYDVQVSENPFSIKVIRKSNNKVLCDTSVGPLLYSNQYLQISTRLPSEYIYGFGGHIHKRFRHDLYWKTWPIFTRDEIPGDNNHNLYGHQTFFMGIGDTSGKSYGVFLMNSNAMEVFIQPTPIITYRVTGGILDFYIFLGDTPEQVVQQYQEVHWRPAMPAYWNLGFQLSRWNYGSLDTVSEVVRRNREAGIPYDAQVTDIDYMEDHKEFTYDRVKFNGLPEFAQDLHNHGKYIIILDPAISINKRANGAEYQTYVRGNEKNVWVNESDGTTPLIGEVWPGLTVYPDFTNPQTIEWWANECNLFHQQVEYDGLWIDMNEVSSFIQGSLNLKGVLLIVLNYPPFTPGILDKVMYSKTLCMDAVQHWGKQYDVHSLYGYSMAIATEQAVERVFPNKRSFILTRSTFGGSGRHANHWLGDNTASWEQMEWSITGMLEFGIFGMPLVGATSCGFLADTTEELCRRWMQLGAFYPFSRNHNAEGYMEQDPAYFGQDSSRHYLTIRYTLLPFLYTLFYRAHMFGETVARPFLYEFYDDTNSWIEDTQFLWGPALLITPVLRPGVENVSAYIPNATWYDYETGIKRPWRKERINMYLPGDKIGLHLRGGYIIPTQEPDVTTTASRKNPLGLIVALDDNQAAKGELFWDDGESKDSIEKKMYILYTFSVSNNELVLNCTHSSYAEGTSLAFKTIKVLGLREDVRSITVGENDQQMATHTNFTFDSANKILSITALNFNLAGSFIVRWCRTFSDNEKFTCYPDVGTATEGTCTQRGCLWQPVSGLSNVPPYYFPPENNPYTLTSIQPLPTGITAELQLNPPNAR
UniProt P23739, 1014-1841 limits assumed: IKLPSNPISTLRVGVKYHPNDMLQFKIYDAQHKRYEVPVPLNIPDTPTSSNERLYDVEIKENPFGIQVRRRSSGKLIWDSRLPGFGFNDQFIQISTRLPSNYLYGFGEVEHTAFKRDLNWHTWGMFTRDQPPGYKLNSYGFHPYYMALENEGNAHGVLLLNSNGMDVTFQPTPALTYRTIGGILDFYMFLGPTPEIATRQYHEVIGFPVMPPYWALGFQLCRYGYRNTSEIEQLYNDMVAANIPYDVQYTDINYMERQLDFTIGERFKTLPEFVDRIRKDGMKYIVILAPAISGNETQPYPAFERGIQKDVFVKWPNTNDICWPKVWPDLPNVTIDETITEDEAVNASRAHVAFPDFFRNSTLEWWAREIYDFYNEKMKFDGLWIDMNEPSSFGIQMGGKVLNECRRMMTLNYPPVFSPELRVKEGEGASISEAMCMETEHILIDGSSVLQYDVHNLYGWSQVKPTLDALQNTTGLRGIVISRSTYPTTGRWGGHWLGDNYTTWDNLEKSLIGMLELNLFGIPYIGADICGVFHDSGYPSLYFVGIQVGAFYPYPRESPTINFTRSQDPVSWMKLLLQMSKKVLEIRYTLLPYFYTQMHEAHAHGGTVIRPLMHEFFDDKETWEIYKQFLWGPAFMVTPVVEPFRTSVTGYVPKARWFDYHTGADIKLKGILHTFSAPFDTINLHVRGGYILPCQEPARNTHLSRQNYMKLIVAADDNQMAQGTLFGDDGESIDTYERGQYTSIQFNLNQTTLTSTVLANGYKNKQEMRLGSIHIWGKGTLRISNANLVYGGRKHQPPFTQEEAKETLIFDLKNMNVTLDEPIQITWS

Molecular target: T1, intestinal sucrase (Rattus norvegicus, UniProt P23739)
T1 construct: 100 mg of rat intestinal acetone powder was homogenized in 3 mL of 0.9% NaCl solution; tissue Sigma Chemical Co. Ltd. (St. Louis, MO); host or cells: rat intestine (acetone powder, supernatant of the saline homogenate)
Test: Intestinal α-glucosidase (sucrase) inhibition assay, rat intestinal acetone powder
Assay type: biochemical
Details: 54 mM sucrose, pH 6.9, 37 °C, 60 min; means ± S.E.M., n = 3
Description: The assessment of α-glucosidase inhibitory activity was performed according to our previous report. Briefly, 100 mg of rat intestinal acetone powder was homogenized in 3 mL of 0.9% NaCl solution. After centrifugation (12,000 g × 30 min), 10 μL of the supernatant (maltase = 0.68 units/mg protein, sucrase = 0.10 units/mg protein) was incubated with 70 μL of substrate solution (37 mM maltose, 54 mM sucrose), and 20 μL of sample at various concentrations in 0.1 M phosphate buffer pH 6.9 at 37 °C for 30 min (maltase assay) and 60 min (sucrase assay). The mixtures were suspended in boiling water for 10 min to stop the reaction. The concentrations of glucose released from the reaction mixtures were determined by glucose oxidase method. Acarbose was used as a positive control for this assay.
The reaction was performed according to the above assay (α-glucosidase and pancreatic α-amylase). Results were expressed as a percentage inhibition of the corresponding control values.

IC50: 90 ± 40 µM
Structure (SMILES): C[C@H]1O[C@H](O[C@H]2[C@H](O)[C@@H](O)[C@@H](O[C@H]3[C@H](O)[C@@H](O)C(O)O[C@@H]3CO)O[C@@H]2CO)[C@H](O)[C@@H](O)[C@@H]1N[C@H]1C=C(CO)[C@@H](O)[C@H](O)[C@H]1O (stereo partly shown) [Acarbose]
